Earlier results as cited in patent US10335367B2, “Use of selected anticholinergic zwitterions” (Bodor Laboratories, Inc., priority 2015, dated 2019).

Test system: rabbit eyes
Settings: topical administration; cited from earlier work

## (±) 3-(2-cyclopentyl-2-phenyl-2-hydroxyacetoxy)-1-(carboxymethyl)-1-methylpyrrolidinium inner salt
  mydriatic activity in rabbit eyes: even lower potency
